Test results as given in patent US20090263341A1, “SOFT ANTICHOLINERGIC ESTERS” (priority 2005, published 2009).

Amino acid sequences for entries named in this document (tags omitted). A change or cut given only in a name is not applied to a line headed by its entry.
UniProt P08173, whole entry: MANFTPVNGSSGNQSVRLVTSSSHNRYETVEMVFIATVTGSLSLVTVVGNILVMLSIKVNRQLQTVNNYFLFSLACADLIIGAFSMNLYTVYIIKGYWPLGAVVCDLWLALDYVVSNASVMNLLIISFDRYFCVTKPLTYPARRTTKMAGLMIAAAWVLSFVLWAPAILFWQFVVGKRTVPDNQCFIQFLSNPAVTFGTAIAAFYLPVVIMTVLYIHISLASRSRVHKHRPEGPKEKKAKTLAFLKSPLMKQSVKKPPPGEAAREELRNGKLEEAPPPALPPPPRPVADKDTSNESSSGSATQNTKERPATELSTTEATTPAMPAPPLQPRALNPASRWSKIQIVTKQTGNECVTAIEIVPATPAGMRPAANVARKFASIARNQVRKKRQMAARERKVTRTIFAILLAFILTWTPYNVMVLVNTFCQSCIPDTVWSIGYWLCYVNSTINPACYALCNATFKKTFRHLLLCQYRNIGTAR
UniProt P11229: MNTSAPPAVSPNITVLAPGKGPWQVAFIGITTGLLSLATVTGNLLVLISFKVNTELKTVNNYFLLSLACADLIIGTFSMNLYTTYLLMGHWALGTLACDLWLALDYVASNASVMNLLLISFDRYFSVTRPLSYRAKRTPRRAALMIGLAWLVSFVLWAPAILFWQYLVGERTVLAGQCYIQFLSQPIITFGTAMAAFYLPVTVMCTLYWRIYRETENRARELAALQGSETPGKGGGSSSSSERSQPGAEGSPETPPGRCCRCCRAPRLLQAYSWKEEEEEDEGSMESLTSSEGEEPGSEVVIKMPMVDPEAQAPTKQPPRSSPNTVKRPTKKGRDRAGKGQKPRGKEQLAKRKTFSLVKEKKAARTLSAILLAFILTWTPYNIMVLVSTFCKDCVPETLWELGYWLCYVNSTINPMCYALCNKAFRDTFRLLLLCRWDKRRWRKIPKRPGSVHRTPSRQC

Tests used:
[1] = target: T1, cloned human muscarinic receptor subtype M4 (Homo sapiens, UniProt P08173); assay: Receptor binding, [3H]NMS, cloned human muscarinic receptor M4
T1 construct: purchased Applied Cell Science Inc. (Rockville, Md.)

[2] = target: cloned human muscarinic receptor subtype M1 (Homo sapiens, UniProt P11229); assay: Receptor binding, [3H]NMS, cloned human muscarinic receptor M1

## C[N+]1(C)CCC(OC(=O)C(O)(c2ccccc2)C2CCCC2)C1.[Br-] (mixture of isomers) [glycopyrrolate, 3-(2-cyclopentyl-2-phenyl-2-hydroxyacetoxy)-1,1-dimethylpyrrolidinium bromide, reference compound]
[1]
  Ki: 0.126 nM
[2]
  Ki: 0.174 nM
